ChEMBL document CHEMBL6096629, “Indolo[3,2-c]isoquinoline Hydroxamic Acid Derivatives as Novel Orally Topoisomerase-Histone Deacetylase Dual Inhibitors for NSCLC Therapy” (J Med Chem, 2025)

How the values were obtained:
[1] = target: T1, DNA topoisomerase 1 (Homo sapiens) (UniProt P11387); assay: Inhibition of Top1 (unknown origin) using pBR322 plasmid DNA as substrate at 20 uM incubated for 15 mins by electrophoresis
T1 sequence (whole entry): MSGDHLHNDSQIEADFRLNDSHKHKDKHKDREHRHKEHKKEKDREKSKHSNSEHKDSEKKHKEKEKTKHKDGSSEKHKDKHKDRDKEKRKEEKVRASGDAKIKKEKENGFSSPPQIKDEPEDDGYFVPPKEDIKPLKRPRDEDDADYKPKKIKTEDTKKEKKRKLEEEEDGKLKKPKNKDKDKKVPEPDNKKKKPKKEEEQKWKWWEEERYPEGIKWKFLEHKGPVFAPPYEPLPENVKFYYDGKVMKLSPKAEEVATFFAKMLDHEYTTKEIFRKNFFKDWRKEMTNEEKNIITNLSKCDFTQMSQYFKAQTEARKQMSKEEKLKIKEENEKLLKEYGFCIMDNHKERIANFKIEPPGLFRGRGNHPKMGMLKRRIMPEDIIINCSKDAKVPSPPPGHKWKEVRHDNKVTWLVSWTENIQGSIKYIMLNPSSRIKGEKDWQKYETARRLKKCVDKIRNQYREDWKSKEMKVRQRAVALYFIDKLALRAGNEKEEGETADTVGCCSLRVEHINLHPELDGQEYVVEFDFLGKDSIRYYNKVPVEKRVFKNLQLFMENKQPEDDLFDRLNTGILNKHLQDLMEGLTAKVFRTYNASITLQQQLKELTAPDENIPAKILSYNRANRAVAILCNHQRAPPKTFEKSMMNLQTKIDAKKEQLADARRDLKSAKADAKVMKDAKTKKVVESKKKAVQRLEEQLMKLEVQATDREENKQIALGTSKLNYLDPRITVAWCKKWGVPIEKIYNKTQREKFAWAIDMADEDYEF

[2] = target: T1, DNA topoisomerase 1 (Homo sapiens); assay: Inhibition of Top1 in human NCI-H1975 cells at 1 to 2 uM incubated for 48 hrs by immunoblot analysis; assay type: cell-based; conditions: dose 1-2 µM
[3] = target: T1, DNA topoisomerase 1 (Homo sapiens); assay: Inhibition of Top1 (unknown origin) using pBR322 plasmid DNA as substrate at 200 uM incubated for 15 mins by electrophoresis
NCI-H1975 = assay: Induction of DNA damage in human NCI-H1975 cells assessed as increase in gamma-H2AX level incubated for 48 hrs in presence of SAHA by immunoblot analysis; assay type: functional, cell-based
[4] = target: T1, DNA topoisomerase 1 (Homo sapiens); assay: Inhibition of Top1 in human NCI-H1975 cells at 4 uM incubated for 48 hrs by immunoblot analysis; assay type: cell-based

SMILES	inhibition [3]	also measured
O=C(CCCCCCCn1c2cc3c(cc2c2[nH]c(=O)c4ccccc4c21)OCO3)NO	Active	inhibition [1]: Active; inhibition [2]: Active
CCc1c2c(nc3ccc(OC(=O)N4CCC(N5CCCCC5)CC4)cc13)-c1cc3c(c(=O)n1C2)COC(=O)[C@]3(O)CC [IRINOTECAN]	–	Activity (NCI-H1975): Active; inhibition [4]: Active
O=C(CCCCCn1c2cc3c(cc2c2[nH]c(=O)c4ccccc4c21)OCO3)NO	Active	–
O=C(CCCCCCCCn1c2cc3c(cc2c2ncc4ccccc4c21)OCO3)NO	inactive	–
O=C(CCCCCCn1c2cc3c(cc2c2nc(Cl)c4ccccc4c21)OCO3)NO	Active	–
O=C(CCCCCCCCn1c2cc3c(cc2c2[nH]c(=O)c4ccccc4c21)OCO3)NO	Active	–
O=C(CCCCCCn1c2cc3c(cc2c2[nH]c(=O)c4ccccc4c21)OCO3)NO	Active	–
O=C(CCCCCCn1c2cc3c(cc2c2ncc4ccccc4c21)OCO3)NO	Active	inhibition [1]: Active
CCCNNC(=O)CCCCn1c2cc3c(cc2c2[nH]c(=O)c4ccccc4c21)OCO3	inactive	–
O=C(CCCCn1c2cc3c(cc2c2[nH]c(=O)c4ccccc4c21)OCO3)NO	Active	inhibition [1]: Active
O=C(CCCCCCCn1c2cc3c(cc2c2ncc4ccccc4c21)OCO3)NO	Active	–

Active and inactive are the calls of the source. The calls are words filed in the database; no cut-off is given here.
